Bioassay records as filed in PubChem.
Rows were chosen to be rich in hits. Some 1.8% of all compounds tested hit in one or more screens of this group.
DENV2 CPE = inhibitors of DENV2 cytopathic effect, primary screen, cell-based, plate reader, single concentration; DENV2-infected cells, cytopathic effect rescue; CPE inhibition, % at 9.99 µM; 350,000 tested, 1.7% active; in the data active = CPE inhibition above about 20%, passing the limit was not always enough; inconclusive = no clear call, values can overlap the other calls; tested in BHK-21 cells
Cneo AK release = Cryptococcus neoformans cell lysis inducers, primary screen, AK release luminescence, single concentration; 360,000 tested, 0.2% active; C. neoformans lysis, adenylate kinase release luminescence, 4 h; normalised: neutral wells 0, clomiphene wells 100; AID 651654, 2012; lysis activity, % at 15 µM;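 active = mean lysis activity across replicates of at least 80%, whatever share of replicates individually reach that level; inactive = mean lysis activity below 80%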
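Material: C. neoformans cells; Schedule: 4 h static compound exposure, 37 °C, read 1 h post-reagent; Measured by: adenylate kinase release luminescence; Read-out: signal increase indicating cell lysis; Controls: Clomiphene as positive lysis control.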
UUG fidelity = modulators of yeast start codon fidelity, primary screen, whole organism, S. cerevisiae, single point, plate reader; S. cerevisiae UUG-firefly luciferase reporter, luminescence/redox ratio; activity score, % at 18.7 µM; 0.13% of 350,000 active; AID 602363, 2012;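 active = replicate mean at a twofold rise or more, about +100% in these data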;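 also: firefly luciferase made from a UUG start codon reports start codon fidelity; reporter light over untreated wells divided by growth signal over untreated wells; some hits fall short of that in this replicate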
E-sel inducer = E-selectin induction in HUVECs, primary screen, imaging, HUVEC, immunofluorescence imaging, single point | P16581 | normalized: neutral wells 0, TNF-alpha wells 100 | 260,000 tested, 0.37% active | activation, % at 7.58 µM;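 active = mean E-selectin-positive cell signal at least 10% of the positive control, reached in at least 60% of replicates, without over 20% cell loss; inconclusive = no rule given, readout overlaps actives, possibly toxicity-flagged; inactive = the rest, including those meeting only one limit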
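assay system = HUVEC, human umbilical vein endothelial cells | input = 3,000 HUVEC seeded per well | medium = EGM-2 growth medium on 0.1% gelatin-coated wells | dosing = one compound dose added by pin transfer | signal = immunofluorescence imaging | read-out basis = % PE-positive cells | control set = TNF-alpha, DMSO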
A number is an active result; n = inactive; u = inconclusive; x = not tested or not shown; ! = not confirmed by another sample.

SMILES | DENV2 CPE | Cneo AK release | UUG fidelity | E-sel inducer
COc1ccc2c3c(n(C)c2c1)[C@H](CO)N(C(=O)NC(C)C)CC31CCN(C(C)=O)CC1 | n | x | x | n
COc1ccc(CN(CCNC(=O)CCCCC(=O)NCCN(Cc2ccc(OC)cc2)C(C)C)C(C)C)cc1 | 30 | x | x | x
COc1ccc(CCNC(=O)CCCCC(=O)NCCc2ccc(OC)cc2)cc1 | n | n | n | x
C[C@H]1CCCCO[C@H](CN(C)C(=O)Cc2ccccc2)[C@@H](C)CN([C@@H](C)CO)C(=O)c2cc(NC(=O)Nc3ccc(F)cc3)ccc2O1 | n | n | n | n
O=C(NCC(c1cccs1)N1CCOCC1)C1CCN(S(=O)(=O)c2ccccc2C(F)(F)F)CC1 (stereo not given) | 61 | n | n | n
Cc1cccc(-c2ccc([C@H]3[C@@H](CO)N4CCCCN(C(=O)c5ccncc5)C[C@@H]34)cc2)c1 | 51 | n | n | n
Cc1cccc(-c2ccc([C@H]3[C@@H](CO)N4CCCCN(C(=O)c5cccnc5)C[C@@H]34)cc2)c1 | 32 | n | n | n
Cc1cccc(-c2ccc([C@H]3[C@@H](CO)N4CCCCN(C(=O)c5cccnc5)C[C@H]34)cc2)c1 | n | n | n | n
COc1ccccc1-c1ccc([C@H]2[C@H]3CN(C(=O)c4ccncc4)CCCCN3[C@H]2CO)cc1 | 22 | n | n | n
C[C@@H]1CN([C@H](C)CO)C(=O)Cc2cc(NC(=O)CCN3CCOCC3)ccc2O[C@H]1CN(C)C(=O)NC1CCCCC1 | n | n | n | n
CNC(=O)C[C@H]1CC[C@@H]2[C@H](COc3ccc(NC(=O)c4ccccc4OC)cc3C(=O)N2C)O1 | n | n | n | n
OC(CSc1ccccn1)CC(O)c1ccccc1 (stereo not given) | n | n | n | x
Cc1ccccc1S(=O)(=O)NC(=O)C1(C)CCN1C(=O)CCc1ccccc1 (stereo not given) | n | n | n | x
CC1(C(=O)NS(=O)(=O)c2ccccc2C(F)(F)F)CCN1C(=O)CCc1ccccc1 (stereo not given) | 49 | n | n | n
CC1(C(=O)NS(C)(=O)=O)CCN1C(=O)C/C=C/c1ccccc1 (stereo not given) | 61 | n | n | n
O=C(NC[C@H]1CC[C@H]2[C@H](CN2Cc2cccc(Cl)c2)O1)C1CCOCC1 | 58 | x | x | x
C[C@H](CO)N1C[C@H](C)[C@H](CN(C)C(=O)c2cnccn2)Oc2ncc(/C=C/c3ccccc3)cc2C1=O | n | n | n | n
C[C@@H]1CN([C@H](C)CO)C(=O)c2cc(NC(=O)Cn3cnnn3)ccc2O[C@@H]1CN(C)Cc1ccc(Oc2ccccc2)cc1 | n | n | n | 88
C[C@@H]1CN([C@@H](C)CO)C(=O)c2cc(NC(=O)Cn3cnnn3)ccc2O[C@@H]1CN(C)Cc1ccc(Oc2ccccc2)cc1 | n | n | n | 52
C[C@@H]1CN([C@@H](C)CO)C(=O)c2cc(NC(=O)NC3CCCCC3)ccc2O[C@@H](C)CCCCO[C@H]1CN(C)Cc1ccc(Cl)c(Cl)c1 | n | n | n | n
CCCCNc1c(-c2ccc(-c3cccc(Cl)c3)cc2)nc2ccc(Cl)cn12 | 59 | n | n | n
O=C(C[C@@H]1CC[C@H]2[C@@H](COC[C@@H](O)CN2Cc2ccc(Oc3ccccc3)cc2)O1)N1CCc2ccccc2C1 | n | n | x | x
C[C@@H]1CN([C@H](C)CO)C(=O)c2cccc(NS(=O)(=O)c3cn(C)cn3)c2O[C@@H]1CN(C)C(=O)Nc1ccc2c(c1)OCO2 | u | n | n | n
COc1ccccc1P(=O)(Cc1ccccc1[N+](=O)[O-])c1ccccc1 (stereo not given) | n | x | x | 59
COc1ccccc1[N+](=O)[O-] | n | n | n | x
SMILES | DENV2 CPE | Cneo AK release | UUG fidelity | E-sel inducer
COCC(=O)Nc1ccc2c(c1)[C@@H]1C[C@@H](CC(=O)N3CCCCC3)O[C@@H](CO)[C@@H]1O2 | n | n | n | n
Cc1ccc(S(=O)(=O)N[C@@H]2CC[C@@H](CCNC(=O)Cc3ccccn3)O[C@H]2CO)cc1 | n | n | n | n
CC(C)NC(=O)N(C)C[C@H]1OCCCC[C@@H](C)Oc2ccc(NS(=O)(=O)c3ccc(Cl)cc3)cc2C(=O)N([C@@H](C)CO)C[C@@H]1C | n | n | n | n
O=C(C[C@@H]1CC[C@@H]2[C@H](COC[C@@H](O)CN2C(=O)Cc2ccccc2)O1)NC1CCC1 | n | n | n | n
COc1ccc(CCn2c(=O)c3cccnc3n(Cc3cccc([N+](=O)[O-])c3)c2=O)cc1OC | n | x | x | 27
S=C(NCCc1ccccc1)NCc1cccc(Cl)c1 | x | n | n | x
Fc1ccccc1NC(=S)NCCc1cccc(Cl)c1 | n | 97 | n | x
C=CCOC(=O)C1=C[C@@H](c2ccc(C(F)(F)F)cc2)[C@H](CCCO)[C@@H](OCC)O1 | 36! | n | n | n
COc1ccc(S(=O)(=O)N(C)C[C@@H]2OCCCC[C@@H](C)Oc3ccc(NC(=O)c4ccccc4)cc3C(=O)N([C@@H](C)CO)C[C@@H]2C)cc1 | 29 | n | n | n
C[C@@H]1CCCCO[C@H](CN(C)S(=O)(=O)c2ccccc2)[C@@H](C)CN([C@@H](C)CO)C(=O)c2cc(NC(=O)c3ccncc3)ccc2O1 | 83 | n | n | x
C[C@@H]1CCCCO[C@@H](CN(C)S(=O)(=O)c2ccc(F)cc2)[C@@H](C)CN([C@@H](C)CO)C(=O)c2cc(NC(=O)c3ccccc3)ccc2O1 | 93 | n | n | n
C[C@@H]1CN([C@H](C)CO)C(=O)c2cc(NC(=O)c3ccncc3)ccc2O[C@@H](C)CCCCO[C@H]1CN(C)S(=O)(=O)c1ccccc1 | n | n | n | x
C[C@H](CO)N1C[C@H](C)[C@@H](CN(C)S(=O)(=O)c2ccc(F)cc2)OCCCC[C@H](C)Oc2ccc(NC(=O)c3ccccc3)cc2C1=O | n | n | n | n
C[C@H](CO)N1C[C@H](C)[C@H](CN(C)S(=O)(=O)c2ccc(F)cc2)OCCCC[C@H](C)Oc2ccc(NC(=O)c3ccccc3)cc2C1=O | 28 | n | n | n
C[C@H]1CCCCO[C@H](CN(C)S(=O)(=O)c2ccc(F)cc2)[C@@H](C)CN([C@@H](C)CO)C(=O)c2cc(NC(=O)c3ccccc3)ccc2O1 | n | n | n | n
Cc1noc(C)c1NC(=O)Nc1cccc2c1O[C@@H](CN(C)CC1CC1)[C@H](C)CN([C@H](C)CO)C2=O | n | n | n | n
COc1ccc2c3c([nH]c2c1)[C@H](CO)N(C(=O)C1CCC1)CC31CN(S(C)(=O)=O)C1 | n | x | x | n
C[C@@H]1CN([C@H](C)CO)C(=O)c2cc(NC(=O)c3ccccc3)ccc2O[C@@H](C)CCCCO[C@@H]1CN(C)S(=O)(=O)c1ccc(F)cc1 | 98 | n | n | n
C[C@H](CO)N1C[C@H](C)[C@@H](CN(C)C(=O)Nc2ccc(C(F)(F)F)cc2)Oc2ccc(NC(=O)Nc3ccc(C(F)(F)F)cc3)cc2CC1=O | n | n | n | n
